Test results published in patent publication US11173137B2, “Compositions and methods to modulate chloride ion channel activity” (The Board of Trustees of the Leland Stanford Junior …, priority 2018, dated 2021).

Protein sequences, listed by entry. Tags and fused reporters are not part of them.
UniProt P51788, whole entry: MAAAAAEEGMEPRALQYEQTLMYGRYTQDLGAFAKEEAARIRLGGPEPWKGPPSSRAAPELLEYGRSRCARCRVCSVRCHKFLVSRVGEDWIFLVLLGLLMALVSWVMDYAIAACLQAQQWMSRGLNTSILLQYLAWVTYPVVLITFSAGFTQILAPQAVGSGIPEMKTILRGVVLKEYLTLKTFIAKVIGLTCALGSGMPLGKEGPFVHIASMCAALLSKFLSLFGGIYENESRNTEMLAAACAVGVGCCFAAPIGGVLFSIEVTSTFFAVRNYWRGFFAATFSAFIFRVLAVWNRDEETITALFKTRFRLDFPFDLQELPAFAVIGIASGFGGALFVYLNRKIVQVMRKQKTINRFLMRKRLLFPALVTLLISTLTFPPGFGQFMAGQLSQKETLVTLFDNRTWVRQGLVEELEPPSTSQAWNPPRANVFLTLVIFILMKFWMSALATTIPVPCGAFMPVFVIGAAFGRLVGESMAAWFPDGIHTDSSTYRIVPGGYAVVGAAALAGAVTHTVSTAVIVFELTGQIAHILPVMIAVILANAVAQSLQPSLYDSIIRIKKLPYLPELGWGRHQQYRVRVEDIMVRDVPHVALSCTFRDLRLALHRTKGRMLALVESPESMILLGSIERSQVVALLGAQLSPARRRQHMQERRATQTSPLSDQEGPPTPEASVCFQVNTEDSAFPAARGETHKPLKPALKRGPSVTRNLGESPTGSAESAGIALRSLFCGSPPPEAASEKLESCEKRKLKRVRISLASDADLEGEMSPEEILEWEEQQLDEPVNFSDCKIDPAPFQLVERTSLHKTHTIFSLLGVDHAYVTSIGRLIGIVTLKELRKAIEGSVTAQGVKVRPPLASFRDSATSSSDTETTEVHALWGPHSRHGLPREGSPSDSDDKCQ

Target: CLC-2 (Homo sapiens (Human), UniProt P51788)
Experiment: IonWorks Barracuda automated patch-clamp electrophysiology, human CLC-2 cell line
Type: cell-based
Details: read-out: IC50 (μM) against CLC-2, n = 4 cells, four concentrations of each compound

Question: `Cc1ccc(Nc2c(Cl)ccc(C)c2Cl)c(C(=O)O)c1` was tested. Which IC50 did it give?
Answer: 37.9 µM
